The target of the experiment is P-glycoprotein (P-gp) (Homo sapiens, UniProt P08183). Briefly: ATPase activity, varying drug concentration at constant ATP concentration (dose response). Conditions: 2 mM ATP, glycerol purified P-gp. The text has this:
The assay was set up, conducted and read in conditions identical to those described above. […] The equation for the general dose response curve is given below (Equation 2).
Equation 2: The general dose response curve equation, where • V=rate of hydrolysis expressed as μmol/min/mg Pi, • Vmax=maximum rate of hydrolysis, • Vmin=minimum rate of hydrolysis, • [D]=concentration of drug, and • EC50=concentration of drug required to produce half maximum rate of hydrolysis.
The highest concentration was similar to that found in the reaction volume of an ATPase assay when a 20% (w/v) buffer was used (10 mM-300 mM). […] Both varying ATP and varying drug assays were performed.

Sequences of proteins named here, by UniProt entry; tags and fusion partners are left off.
UniProt P08183, whole entry: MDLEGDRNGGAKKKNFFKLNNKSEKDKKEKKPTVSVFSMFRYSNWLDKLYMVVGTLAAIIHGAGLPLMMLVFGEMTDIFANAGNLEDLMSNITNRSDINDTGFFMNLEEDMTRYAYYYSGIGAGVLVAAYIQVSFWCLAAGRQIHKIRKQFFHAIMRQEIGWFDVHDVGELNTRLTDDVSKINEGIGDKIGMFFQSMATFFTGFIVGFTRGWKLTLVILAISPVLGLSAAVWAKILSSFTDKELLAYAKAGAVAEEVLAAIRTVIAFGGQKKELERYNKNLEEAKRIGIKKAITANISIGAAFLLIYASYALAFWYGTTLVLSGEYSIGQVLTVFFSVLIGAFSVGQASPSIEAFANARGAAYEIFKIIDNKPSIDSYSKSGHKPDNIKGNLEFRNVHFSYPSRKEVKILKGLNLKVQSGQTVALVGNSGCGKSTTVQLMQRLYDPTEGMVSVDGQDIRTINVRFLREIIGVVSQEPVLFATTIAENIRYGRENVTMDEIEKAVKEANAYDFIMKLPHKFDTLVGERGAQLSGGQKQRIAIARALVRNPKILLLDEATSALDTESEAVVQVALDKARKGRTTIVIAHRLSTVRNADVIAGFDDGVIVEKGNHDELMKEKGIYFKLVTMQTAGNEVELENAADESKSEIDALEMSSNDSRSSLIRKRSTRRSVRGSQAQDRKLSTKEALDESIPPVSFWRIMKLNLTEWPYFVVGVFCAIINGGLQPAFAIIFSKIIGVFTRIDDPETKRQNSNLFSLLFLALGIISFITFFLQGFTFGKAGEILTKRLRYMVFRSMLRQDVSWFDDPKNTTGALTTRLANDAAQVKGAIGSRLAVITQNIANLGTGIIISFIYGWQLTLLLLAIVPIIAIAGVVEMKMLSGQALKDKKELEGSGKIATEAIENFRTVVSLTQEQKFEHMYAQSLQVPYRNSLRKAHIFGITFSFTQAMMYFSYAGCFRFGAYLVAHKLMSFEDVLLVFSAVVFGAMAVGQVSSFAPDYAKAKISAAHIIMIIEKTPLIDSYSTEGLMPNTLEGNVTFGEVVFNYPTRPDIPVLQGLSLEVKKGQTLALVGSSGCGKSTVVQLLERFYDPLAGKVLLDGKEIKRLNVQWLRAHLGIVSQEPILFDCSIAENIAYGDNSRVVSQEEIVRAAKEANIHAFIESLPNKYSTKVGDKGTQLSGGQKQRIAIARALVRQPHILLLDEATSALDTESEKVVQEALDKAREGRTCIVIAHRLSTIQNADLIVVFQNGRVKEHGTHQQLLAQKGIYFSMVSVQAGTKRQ

Broadly, the EC50 is the concentration at which the effect is half-maximal.

As for `COC(=O)C1=C(C)NC(C)=C(C(=O)OCCN(C)Cc2ccccc2)C1c1cccc([N+](=O)[O-])c1` (stereo not drawn) [nicardipine, reference compound], the EC50 (EC50 of nicardipine stimulated ATPase activity (maltose experiment), FIG. 20, curves without and with 300 mM maltose) came to 30 µM; the EC50 (EC50 of nicardipine stimulated ATPase activity in the presence of trehalose, 300 mM trehalose (FIG. 12)) is 19.2 µM; the EC50 (EC50 of nicardipine stimulated ATPase activity, absence of trehalose) was 24.2 µM.

The record behind these values is patent US20100279329A1, “METHOD FOR THE STABILISATION OF PURIFIED P-GLYCOPROTEIN” (UNIVERSITY OF BRIGHTON, priority 2007, published 2010).
